According to PubChem BioAssay AID651589 (Sanford-Burnham Center for Chemical Genomics, 2012):
Only a part is listed here, and it is no random draw. Active and inactive are the calls of the source.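 The calls were made as follows: active = mean inhibition of the reporter signal across four replicates at the single tested dose of 50% or more; inactive = the rest.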

assay: HIF-1a luciferase reporter signal reduction – MiaPaCa-2 cells, single concentration, counter-screen for HIF-2a inhibitor project, confirmation (AID 651589); details: MiaPaCa-2 HIF-1a luciferase reporter, desferoxamine, overnight; at 18.8 µM; stronger effect = higher value

SMILES | inhibition
CN(C)C(=O)c1cc([N+](=O)[O-])cc2c1-c1c(cc([N+](=O)[O-])cc1[N+](=O)[O-])C2=O | active: 104%
